# scFv variants of Ab-91 (heavy chain) against a SARS-CoV-2 spike peptide

The measurements come from Engelhart et al. 2022 (doi:10.1038/s41597-022-01779-4) through the FLAb antibody collection.

Antigen: PDVDLGDISGINAS, a 14-residue peptide of the SARS-CoV-2 spike HR2 region.

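Phage display of a naive human antibody library on the peptide gave the parent. Library AAYL51 holds single substitutions and randomly drawn double and triple substitutions in the CDRs. AlphaSeq pools MATa yeast showing the antibodies with MATalpha yeast showing the peptide. Mating (16 h, 30 °C) was followed by selection of diploids and sequencing of their barcodes. Each replicate has its own calibration line, from reference interactions of the BCL2 family. Mating was done three times.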

The variants keep the light chain, the linker and the frameworks of Ab-91 (scFv order VL, the linker GGGGSGGGGSGGGGS, VH).
VL: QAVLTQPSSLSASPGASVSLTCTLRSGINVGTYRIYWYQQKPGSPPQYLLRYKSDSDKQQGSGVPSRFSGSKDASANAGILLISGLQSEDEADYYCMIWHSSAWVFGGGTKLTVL
VH: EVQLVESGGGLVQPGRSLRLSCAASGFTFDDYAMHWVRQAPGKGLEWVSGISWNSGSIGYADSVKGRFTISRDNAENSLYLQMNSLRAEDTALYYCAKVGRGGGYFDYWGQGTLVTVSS

Each variant is given by its three heavy chain CDRs, as the data file delimits them; those of the parent are GFTFDDYAMH, GISWNSGSIGYADSVK, VGRGGGYFDY. Affinities are written as log10 Kd with Kd in nM; a lower number is a better binder. A pair that was not seen in that replicate is written "n.d."; this usually means weak binding, but a binder can also be missed. In this assay the parent's reference entry averaged 1.86; its copy inside this library read 0.88. As a blank, each scFv also met three strains without target: over library AAYL51, 21% of these pairings were detected, typically at 4.54 and seldom below 3.26. Also given: how often the same scFv was detected with the empty control strains, with their mean in brackets.

CDR-H1,CDR-H2,CDR-H3,"log10 Kd, replicates",signal with controls
GFTFDDYAMH,GIYWNSGSIGYYDSVC,VGRGGGYFDY,n.d. / n.d. / n.d.,1/9 (4.43)
GFTFDDYAMH,PISWNSGSIGYADSVA,VGRGGGYYDY,4.41 / n.d. / n.d.,1/9 (5.28)
GFTFDDYAMG,GISVNSGSIGYADSVC,VGRGGGYFDY,3.44 / n.d. / n.d.,0/9
GFTFDDYAMH,GISYNSGSIGYADSVK,VGPGGGYFDY,n.d. / n.d. / n.d.,0/9
GFTFDQNAMH,GISWNLGSIGYADSVK,VGRGGGYFDY,3.26 / n.d. / 4.93,4/9 (4.87)
GFHFGDYAMH,GISWNSGSIGYADSVK,KGRGGGYFDY,4.64 / n.d. / n.d.,5/9 (4.27)
GFTFDDYAMH,KISWYSGSIGYADGVK,VGRGGGYFDY,n.d. / n.d. / n.d.,1/9 (2.23)
GFKFDDYAMH,GFSWNSGSIGYADSVK,VGRGGGYSDY,n.d. / n.d. / n.d.,0/9
PFTFDDYAMH,GISWNSGSIGYADSCK,VGRGIGYFDY,4.40 / n.d. / 4.13,2/9 (4.70)
HFTFDDYAMH,GISWNSGSIGYADSVK,PGRGGGYADY,n.d. / n.d. / n.d.,0/9
GFTFDDYAMH,GISWNSGSITYADFVK,VGRGGGYFDN,n.d. / 5.05 / n.d.,1/9 (5.14)
WFTFGDYAMH,GISWNSGSIGYADSVK,VGRGGGYFDY,4.12 / n.d. / 4.64,1/9 (3.43)
GFTFDDYAMH,GISWQSGSIGYADSVK,VGRGVGYFDY,n.d. / n.d. / n.d.,1/9 (4.96)
GATFDWYAMH,GISWNSGSIGYADSVK,VGRGGGWFDY,n.d. / n.d. / n.d.,0/9
GFTFDDYAMS,GISWNSGSIGYADSRK,VGHGGGYFDY,5.18 / 6.27 / n.d.,1/9 (4.52)
GFTFDDYAMH,GIRWNSGSIGYADSVS,HGRGGGYFDY,4.55 / n.d. / n.d.,0/9
CFTFDDYHMH,GIQWNSGSIGYADSVK,VGRGGGYFDY,5.81 / 4.36 / 5.53,4/9 (4.45)
GFTFDFYAMH,GISWNSGSIKYADSVK,VGCGGGYFDY,n.d. / n.d. / n.d.,1/9 (2.69)
GFTFDDYAMH,IISWNSGSIGYADFVK,VGRGWGYFDY,n.d. / n.d. / n.d.,3/9 (4.41)
GFTFDDYAMH,GISWNSGSIKYADSVK,VGRGGGYFDP,n.d. / 4.08 / n.d.,0/9
GFTFDDYAMH,GISWNRGSIRYADSVK,VGRGGGYFDG,n.d. / n.d. / n.d.,0/9
GFTFDDYAMH,GISWNTGSFGYADSVK,VGRGGVYFDY,n.d. / 4.90 / n.d.,1/9 (1.99)
GFTFDDYAMH,GISWNSGSIGYADSVK,VSRGCGYFDY,4.49 / n.d. / 4.03,4/9 (4.70)
GFTHDDYAIH,GISWNSGSIGYADSVK,VGRGGGYFDY,4.80 / 4.09 / 4.58,4/9 (4.80)
GFTFDQYAMH,GISWNSISIGYADSVK,VGRGGGYSDY,1.98 / 1.69 / 1.32,4/9 (4.43)
GFTFDDYAMH,GISWNSGDIGRADSVK,VGRGGGYLDY,n.d. / n.d. / n.d.,1/9 (4.40)
GFTFDDYAMP,GQSWNSGSIGYADSVK,VGRGGGYFDP,n.d. / n.d. / 4.45,5/9 (4.46)
GFTFDDYAMH,GISWNKGSIGYADSVK,DGRFGGYFDY,n.d. / n.d. / 3.93,3/9 (4.20)
GFTFWDYAMH,VISWNSGSIGWADSVK,VGRGGGYFDY,n.d. / n.d. / n.d.,0/9
GFTFDDYAMW,MISWNSGSIGYADSVK,VGRGGGYFDS,n.d. / n.d. / n.d.,1/9 (3.58)
IFTFDDYAMH,GISWNSGCIGYADSVK,VGRGGGYFDY,4.00 / 4.15 / n.d.,5/9 (4.38)
GFTFDDYAMH,GISCNSGSIFYADSVK,VGRLGGYFDY,n.d. / 4.54 / n.d.,0/9
GSTFDDYAMH,GISWKSGSIGYADSVK,VGRFGGYFDY,5.84 / 5.75 / 5.57,3/9 (4.79)
GFTFDDYAMI,GWSWNSGSIGYADSVK,VGRGGGYFDY,n.d. / n.d. / n.d.,0/9
HFMFDDYAMH,GISWNSGSIGYADSVK,VGRGGGYDDY,n.d. / n.d. / n.d.,0/9
GFTFDDYAMH,GISWWSGSIGCADSVK,VGRGGGYFDG,4.78 / n.d. / n.d.,4/9 (3.90)
GFTFDDYAMH,GISWNSKSIGYTDSVK,VGRGAGYFDY,3.83 / n.d. / n.d.,0/9
GFTCDDYAMH,KISWNSGSIGYADSVK,VGRFGGYFDY,n.d. / n.d. / 4.71,4/9 (4.07)
GFTFDGYAMH,GISWNSSSIGYADSVK,VGNGGGYFDY,3.65 / 4.19 / 4.54,1/9 (4.10)
GFTFDDYAMH,RILWNMGSIGYADSVK,VGRGGGYFDY,n.d. / n.d. / n.d.,0/9
GFTFSDYAMH,GISWNSGAIGYAKSVK,VGRGGGYFDY,1.99 / 2.01 / 1.65,1/9 (5.63)
GFPFDDYAMH,GISWNQGSINYADSVK,VGRGGGYFDY,5.34 / 4.43 / n.d.,1/9 (3.93)
GFTFDDYAFH,EISWNSGSIGYADSVK,QGRGGGYFDY,n.d. / n.d. / n.d.,1/9 (4.55)
RFHFDDYAMA,GISWNSGSIGYADSVK,VGRGGGYFDY,n.d. / n.d. / 4.73,5/9 (4.26)
GFTFDDYAMH,GISWNSGSKGYADSVK,QGRGCGYFDY,1.20 / 1.22 / 0.73,8/9 (5.06)
GTTFDDYAMH,GISWNSGGIGYADSVK,VGRGGGYFDW,4.42 / 5.06 / 3.81,3/9 (4.41)
GFTFDDNAMH,GISWNSASIGYADRVK,VGRGGGYFDY,3.14 / 2.79 / 2.38,1/9 (4.57)
GFDFDDYAMH,GISWNSGSIGEADSVK,VFRGGGYFDY,3.29 / 2.86 / 2.05,1/9 (3.61)
GFTFDDYAMH,GISWNGGSIGYATSHK,VGRGGGYFDY,3.03 / 2.86 / n.d.,4/9 (4.56)
GFCFDDYAMH,EISWNSGSIGYADSVK,VGRGGGYEDY,4.24 / 6.44 / 5.42,7/9 (4.77)